For assay [1], the species on record is Homo sapiens. The assay can be described thus: Selectivity index, ratio of IC50 for PDGFRbeta (unknown origin) to IC50 for c-Met (unknown origin).
Assay [2] is filed under the species Homo sapiens. The assay can be described thus: Selectivity index, ratio of IC50 for KDR (unknown origin) to IC50 for c-Met (unknown origin).

Consider `COc1cc2c(Oc3ccc(NC(=O)c4nnn(-c5ccc(F)cc5)c4C(F)(F)F)cc3F)ccnc2cc1OCCCN1CCCC1`, for which the results for the Ratio IC50 in the assay listed under Homo sapiens [1] and in the assay listed under Homo sapiens [2] were 15.6 and 62.9, respectively.

(Values after ChEMBL document CHEMBL3352351 (Bioorg Med Chem, 2014).)
